Organism: Homo sapiens
Test: Selectivity ratio of Ki for human recombinant 5HT2C receptor to Ki for human recombinant 5HT2C receptor

| Ratio Ki | SMILES |
| --- | --- |
| 1900 | Cn1nccc1-c1cc(NC(=O)c2cccc(C(F)(F)F)c2)ccc1OCCN1CCCC1 |
| 118 | Cn1nccc1-c1cc(NC(=O)c2ccc(C(F)(F)F)cc2)ccc1OCCN1CCCC1 |
